Sequences of proteins named here, by UniProt entry; tags and fusion partners are left off.
UniProt P35968, whole entry: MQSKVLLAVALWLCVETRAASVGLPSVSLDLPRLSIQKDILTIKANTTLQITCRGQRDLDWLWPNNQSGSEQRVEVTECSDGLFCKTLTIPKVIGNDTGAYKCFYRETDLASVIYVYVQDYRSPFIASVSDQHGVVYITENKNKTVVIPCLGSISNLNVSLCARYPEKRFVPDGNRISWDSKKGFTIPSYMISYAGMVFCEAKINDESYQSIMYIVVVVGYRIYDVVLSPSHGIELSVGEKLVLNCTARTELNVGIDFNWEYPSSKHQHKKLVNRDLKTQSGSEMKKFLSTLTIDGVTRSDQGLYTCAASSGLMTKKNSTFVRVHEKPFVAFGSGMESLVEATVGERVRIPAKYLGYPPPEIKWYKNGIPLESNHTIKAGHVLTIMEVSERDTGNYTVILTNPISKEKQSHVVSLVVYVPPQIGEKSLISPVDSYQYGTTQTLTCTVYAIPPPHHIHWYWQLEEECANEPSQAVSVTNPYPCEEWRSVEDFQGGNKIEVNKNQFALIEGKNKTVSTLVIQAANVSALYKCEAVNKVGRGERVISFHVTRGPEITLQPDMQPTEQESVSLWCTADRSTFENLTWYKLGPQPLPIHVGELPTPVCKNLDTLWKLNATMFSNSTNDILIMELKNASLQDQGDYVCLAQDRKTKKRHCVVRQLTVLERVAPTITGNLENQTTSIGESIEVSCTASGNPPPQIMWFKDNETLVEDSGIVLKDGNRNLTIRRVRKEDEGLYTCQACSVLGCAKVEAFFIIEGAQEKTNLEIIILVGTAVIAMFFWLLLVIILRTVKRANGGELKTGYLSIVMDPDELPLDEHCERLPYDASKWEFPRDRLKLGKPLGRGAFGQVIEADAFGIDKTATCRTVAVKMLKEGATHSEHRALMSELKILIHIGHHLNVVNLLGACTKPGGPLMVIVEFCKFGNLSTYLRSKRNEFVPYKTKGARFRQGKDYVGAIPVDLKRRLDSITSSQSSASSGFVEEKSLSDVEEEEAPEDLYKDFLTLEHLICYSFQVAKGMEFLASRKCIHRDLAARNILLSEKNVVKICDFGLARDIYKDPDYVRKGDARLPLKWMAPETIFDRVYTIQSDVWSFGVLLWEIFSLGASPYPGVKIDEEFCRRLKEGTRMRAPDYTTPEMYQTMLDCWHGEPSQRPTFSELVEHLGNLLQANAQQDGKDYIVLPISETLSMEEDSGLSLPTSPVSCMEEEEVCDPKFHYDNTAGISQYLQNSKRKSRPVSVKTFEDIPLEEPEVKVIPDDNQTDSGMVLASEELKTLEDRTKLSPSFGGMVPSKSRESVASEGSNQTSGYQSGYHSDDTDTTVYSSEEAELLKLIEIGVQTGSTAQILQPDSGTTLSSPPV

According to ChEMBL document CHEMBL1155848 (2008):

Biological target: Vascular endothelial growth factor receptor 2 (Homo sapiens, UniProt P35968)
Experiment: Inhibition of VEGFR2

With `COc1cc(Nc2nccc(Nc3ccc4c(C)n[nH]c4c3)n2)cc(OC)c1OC` [GW612286X] the IC50 was 6.3 nM.
